Read-outs that look alike come from different tables or passages of the source.
Tests used:
in vivo = settings: mouse, plasma, po, 10 mg/kg
[1] = mice
[2] = SC, 0.1 mg/kg (45% Trapposol veh)

In the case of `O=C1CN2c3c(cccc3[C@@H]3CN(CCCOc4ccc(F)cc4)CC[C@@H]32)N1` [Example 2, (6bR,10aS)-8-(3-(4-fluorophenoxy)propyl)-6b,7,8,9,10,10a-hexahydro-1H-pyrido[3′,4′:4,5]pyrrolo[1,2,3-de]quinoxalin-2(3H)-one], the AUC(0-t) (in vivo) is reported as 759 ng·h/mL, the Cmax (in vivo) is reported as 279 ng/mL and the “Brain (ng/g), 0.5 hr” value ([1]; PO, 10 mg/kg (0.5% CMC veh)) is reported as 1180 ng/g. For the same compound, the “Brain (ng/g), 1 hr” value ([1]; PO, 10 mg/kg (0.5% CMC veh)) was 989 ng/g, the “Brain (ng/g), 2 hr” value ([1]; PO, 10 mg/kg (0.5% CMC veh)) was 699 ng/g and the “Brain (ng/g), 4 hr” value ([1]; PO, 10 mg/kg (0.5% CMC veh)) was 734 ng/g. For the same compound, the “Brain (ng/g), […]” value ([1]; PO, 10 mg/kg (0.5% CMC veh)) was 1288 ng/g, the “Plasma (ng/mL), 1 hr” value ([1]; PO, 10 mg/kg (0.5% CMC veh)) was 258 ng/mL and the “Plasma (ng/mL), 2 hr” value ([1]; PO, 10 mg/kg (0.5% CMC veh)) was 153 ng/mL. For the same compound, the “Plasma (ng/mL), 4 hr” value ([1]; PO, 10 mg/kg (0.5% CMC veh)) was 199 ng/mL, the “Plasma (ng/mL), […]” value ([1]; PO, 10 mg/kg (0.5% CMC veh)) was 279 ng/mL and the “Brain (ng/g), 0.5 hr” value [1, 2] was 71.9 ng/g. The “Brain (ng/g), 1 hr” value [1, 2] was 78.5 ng/g, the “Brain (ng/g), 2 hr” value [1, 2] was 38.7 ng/g and the “Brain (ng/g), 4 hr” value [1, 2] was 32.6 ng/g. For the same compound, the “Brain (ng/g), […]” value [1, 2] was 57.1 ng/g, the “Plasma (ng/mL), 0.5 hr” value [1, 2] was 31.1 ng/mL and the “Plasma (ng/mL), 1 hr” value [1, 2] was 29.2 ng/mL. For the same compound, the “Plasma (ng/mL), 2 hr” value [1, 2] was 14.6 ng/mL and the “Plasma (ng/mL), […]” value [1, 2] was 27.5 ng/mL.
